For six compounds, IC50 results are on record in US8324225B2, “Pyrrolopyrimidine compounds and their uses” (Novartis AG, priority 2006, dated 2012).

By UniProt entry, the sequences of proteins in these tests, tags left out.
UniProt P06493, whole entry: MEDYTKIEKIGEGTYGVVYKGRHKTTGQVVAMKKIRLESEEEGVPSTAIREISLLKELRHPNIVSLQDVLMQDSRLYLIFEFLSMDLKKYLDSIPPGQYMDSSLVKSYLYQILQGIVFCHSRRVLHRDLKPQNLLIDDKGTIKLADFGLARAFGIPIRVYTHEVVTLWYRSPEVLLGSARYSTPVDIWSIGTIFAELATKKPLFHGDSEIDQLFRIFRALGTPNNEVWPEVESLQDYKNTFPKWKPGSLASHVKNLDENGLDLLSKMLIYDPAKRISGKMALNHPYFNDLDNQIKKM
UniProt P11802, whole entry: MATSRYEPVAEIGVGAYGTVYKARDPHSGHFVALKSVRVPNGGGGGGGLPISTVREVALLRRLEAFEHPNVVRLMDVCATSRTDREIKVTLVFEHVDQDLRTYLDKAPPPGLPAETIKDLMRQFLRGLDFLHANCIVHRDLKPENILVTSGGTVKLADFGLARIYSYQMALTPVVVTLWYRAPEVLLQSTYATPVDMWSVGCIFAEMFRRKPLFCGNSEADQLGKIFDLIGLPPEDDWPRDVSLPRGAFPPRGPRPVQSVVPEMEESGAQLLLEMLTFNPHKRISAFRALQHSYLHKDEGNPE
UniProt P14635, whole entry partner: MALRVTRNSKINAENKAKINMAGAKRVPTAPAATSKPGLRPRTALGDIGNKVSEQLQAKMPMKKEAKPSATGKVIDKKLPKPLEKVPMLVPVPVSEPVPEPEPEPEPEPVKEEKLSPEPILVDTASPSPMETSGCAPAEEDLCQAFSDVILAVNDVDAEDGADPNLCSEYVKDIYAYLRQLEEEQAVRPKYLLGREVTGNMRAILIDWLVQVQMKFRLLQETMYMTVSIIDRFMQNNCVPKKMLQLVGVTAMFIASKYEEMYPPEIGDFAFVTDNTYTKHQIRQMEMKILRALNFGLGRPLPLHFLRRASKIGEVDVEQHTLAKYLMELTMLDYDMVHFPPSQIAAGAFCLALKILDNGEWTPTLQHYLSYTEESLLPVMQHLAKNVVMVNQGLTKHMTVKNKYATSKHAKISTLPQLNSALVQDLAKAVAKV
UniProt P24385, whole entry partner: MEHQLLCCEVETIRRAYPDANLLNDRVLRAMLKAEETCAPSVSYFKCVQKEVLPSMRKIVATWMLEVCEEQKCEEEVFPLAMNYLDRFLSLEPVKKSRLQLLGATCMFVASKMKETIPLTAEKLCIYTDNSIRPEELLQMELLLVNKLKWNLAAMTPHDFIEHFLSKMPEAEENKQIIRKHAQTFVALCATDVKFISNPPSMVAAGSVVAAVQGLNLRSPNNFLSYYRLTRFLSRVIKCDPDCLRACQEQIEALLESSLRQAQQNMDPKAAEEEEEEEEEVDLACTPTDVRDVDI

One experiment has as its target hCDK1/B (Homo sapiens, UniProt P06493). The experiment in a line: hCDK1/B. The class given is biochemical. To be noted: read-out: hCDK1/B/IC50 [umol l − 1]; Table E.
Experiment [1] addresses CDK2/Cyclin-A kinase complex (Homo sapiens, UniProt P24941). As to the kind of experiment: CDK2 IMAP fluorescence polarization assay. To be noted: read-out: CDK2cyA IMAP/IC50 [umol l − 1]; Table E. An excerpt:
In order to test the CDK2 activity of the compounds of the invention, the CDK2 assay is a fluorescence polarization assay, where the enzyme is a purified active CDK2/Cyclin-A kinase complex and the substrate is a synthesized peptide derived from Histone H1. This assay utilizes the IMAP technology from Molecular Devices. The active CDK2/Cyclin-A complex phosphorylates the peptide substrate, which is conjugated with the TAMRA tag. The phosphorylated site is then recognized by a metal containing molecule that interacts with the TAMRA tag to induce a high fluorescence polarization. The compounds that inhibit the CDK2 kinase activity would inhibit the fluorescence output of the assay.
(In general: In fluorescence polarisation assays a small probe gives low polarisation when free and higher when bound to something large.)

The target in experiment [2] is CDK4/Cyclin-D1 kinase complex (Homo sapiens, UniProt P11802). As to the kind of experiment: CDK4 ELISA based assay, Rb phosphorylation at Serine780. To be noted: read-out: CDK4 ELISA assay IC50 [umol l−]; Table E. On the technique in general: ELISA stands for enzyme-linked immunosorbent assay.

`CCC(CC)n1c(C(=O)Nc2ccccc2)cc2cnc(Nc3ccc(N4CCNCC4)cc3)nc21`: at hCDK1/B, the IC50 was < 1 µM.
Consider `Cc1cn(C2CCC(O)C2)c2nc(Nc3ccc(CN4CCOCC4)cc3)ncc12` (centres unmarked), for which the IC50 in experiment [1] is < 10 µM.
As to `Cc1c(-c2cnco2)n(C2CCCC2)c2nc(Nc3ccc(N4CCNCC4)cn3)ncc12` [399A], the IC50 on hCDK1/B was < 10 µM.
For `Cc1nnc(-c2c(C)c3cnc(Nc4ccc(N5CCNCC5)cn4)nc3n2C2CCCC2)o1`, the IC50 in experiment [1] was > 10 µM.
For `Cc1c(-c2cnco2)n(C2CCCC2)c2nc(Nc3ccc(N4CCNCC4)cn3)ncc12` [399C], the IC50 is > 15 µM in experiment [1] and < 10 µM at hCDK1/B.
`CCC(CC)n1ccc2cnc(Nc3ccc(N4CCN(C(C)=O)CC4)cc3)nc21`: the IC50 in experiment [1] is < 1 µM; in experiment [2], < 10 µM.
